Among the data in US20100292337A1, “Polar Hydrophilic Prodrugs of Amphetamine and Other Stimulants and Processes for Making and Using the Same” (priority 2007, published 2010) are Tmax values, retold here.

This data set in a line: Example 12: oral pharmacokinetic study of hArg-Amp vs Lys-Amp, plasma d-amphetamine by ELISA. To be noted: oral gavage, rat, […] d-amphetamine freebase equivalent; released d-amphetamine. A general note: In an ELISA, binding on a coated surface is turned into a signal by an enzyme label.

Usually Tmax stands for the time from dosing to the highest level. For the molecule `C[C@@H](Cc1ccccc1)NC(=O)[C@@H](N)CCCCN=C(N)N.Cl.Cl` [hArg-Amp, l-homoarginine-d-amphetamine dihydrochloride], the Tmax is 4 h.
